## Antibody variant affinities, Ab-14 heavy chain, assay 1

Source: Engelhart et al. 2022 (doi:10.1038/s41597-022-01779-4), MIT Lincoln Laboratory and A-Alpha Bio; data file from the FLAb repository.

Binding partner: SARS-CoV-2 spike HR2 peptide, sequence PDVDLGDISGINAS.

The variants keep the light chain, the linker and the frameworks of Ab-14 (scFv order VH, a 15-residue (Gly4Ser)3 linker, VL).
VH: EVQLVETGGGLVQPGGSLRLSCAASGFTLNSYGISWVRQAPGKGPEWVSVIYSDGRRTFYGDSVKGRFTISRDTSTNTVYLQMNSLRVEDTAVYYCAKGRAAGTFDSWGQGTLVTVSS
VL: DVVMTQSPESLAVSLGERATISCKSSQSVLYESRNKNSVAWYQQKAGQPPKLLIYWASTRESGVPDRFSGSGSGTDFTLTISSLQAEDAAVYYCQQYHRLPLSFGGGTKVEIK

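The parent was found by panning a naive human phage display library on the peptide. AAYL49 was designed without a model: most single CDR substitutions and a random sample of double and triple ones. The scFvs were displayed on barcoded MATa yeast, the peptide on MATalpha yeast. Pairs that bind mate more often; barcode pairs of the diploids are counted by sequencing. Each replicate has its own calibration line, from reference interactions of the BCL2 family. Mating was done three times.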

The parent's heavy chain CDRs are GFTLNSYGIS, VIYSDGRRTFYGDSVK, GRAAGTFDS; each variant's own CDRs replace them letter for letter. The read-out is the apparent dissociation constant on a log10 scale (nM): the lower, the stronger. Replicates are averaged; those with no signal do not enter the mean. "ND" marks a missing value. The strain was present, yet no cells mated with the target were sequenced in that replicate, which points to weak or no binding.

CDR-H1	CDR-H2	CDR-H3	replicates, log10 nM	mean log10 Kd (nM)	empty controls
GFPLNSYGIS	VIYSDMRRTFYGDSVK	VRAAGTFDS	3.79 / ND / ND	3.79	0 of 9
GFTLNSYGIS	VIYSDMRRTFYGDSVK	ARAAGTFLS	ND / ND / ND	ND	1 of 9 (3.99)
GFTLWSSGIS	VIYSDGRRIFYGDSVK	GRAAGTFDS	3.09 / 2.68 / 2.99	2.92	2 of 9 (3.85)
GFTLNSYGIS	VIYVDGRRTFYGDSVK	GFAAGTHDS	ND / ND / ND	ND	0 of 9
GFTLNWYGIS	VIYSDGRRTFYGDSVK	GREAFTFDS	ND / ND / ND	ND	1 of 9 (3.02)
GWTLNSYGIS	VIYSDGRRTFYRDSDK	GRAAGTFDS	ND / ND / ND	ND	1 of 9 (3.00)
GFTLNSYIIS	VIYSDGRRNFYGDSVK	GRCAGTFDS	ND / ND / 3.76	3.76	2 of 9 (3.91)
GFPLDSYGIS	VIYSDGRRTFYGDSVM	GRAAGTFDS	1.06 / 1.17 / 1.08	1.10	6 of 9 (4.63)
GFILNVYGIS	VIYSDGRRTFYGDSVK	GRAAGTFYS	ND / 5.20 / ND	5.20	3 of 9 (3.95)
GFTINSYGIS	VIESDGRRTFYGDSVK	DRAAGTFDS	5.27 / 3.80 / ND	4.53	5 of 9 (3.53)
GFTLNSYGIS	VIYSDGRRTFEGDSVK	GFAAGTFDC	ND / ND / ND	ND	0 of 9
GFTLNSYGIS	VMYSDGRRTFYGISVK	IRAAGTFDS	ND / ND / ND	ND	1 of 9 (3.07)
GFTLNSYGIS	VDYSVGRRTFYGDSVK	LRAAGTFDS	ND / ND / ND	ND	0 of 9
GFTLNSYGIS	VIASDGRRTFYGDSVK	GKAAGTFDS	ND / 3.17 / ND	3.17	1 of 9 (3.50)
GFALNSYGIS	VIYSDGRRTFYGDSVK	GMAAGIFDS	1.40 / 1.25 / 1.20	1.28	1 of 9 (2.80)
GMTLNWYGIS	VIYSDGRRTFYGDSVK	GRAAGTFDS	1.78 / 2.14 / 1.86	1.93	4 of 9 (3.56)
GFTLNSYGIE	VIYSDGRRTFYGDYVK	GRAAGTFDS	3.62 / ND / ND	3.62	0 of 9
GFTLNSYGIS	VIDSDGRRTWYGDSVK	GRAAGMFDS	ND / ND / ND	ND	0 of 9
GFTQNSYGIS	VIYSDGIRTFYGDSVK	GRAAGTFDS	ND / ND / ND	ND	0 of 9
GFTLNSYGIS	VIYSGGRRTCYGDPVK	GRAAGTFDS	ND / 3.16 / 4.47	3.82	2 of 9 (3.56)
WFTLNSYGIS	VISSDGRDTFYGDSVK	GRAAGTFDS	ND / ND / ND	ND	0 of 9
GFTLNCYGIS	VIYSDGRRTFYHDSVK	GRAAGTFDS	1.68 / 1.72 / 2.11	1.84	4 of 9 (4.03)
GFTLNSYGIS	QIYSDGRRTFYGDSVK	ERAAGTFDH	ND / ND / ND	ND	0 of 9
GFTLQQYGIS	VIYSDGRRTFYGDSVK	GRAAGTTDS	4.99 / ND / 5.42	5.20	3 of 9 (2.79)
GFTLNSYGIS	VIYSDWRRTFGGDSVK	GRLAGTFDS	ND / ND / ND	ND	4 of 9 (4.37)
NFTLNSYGQS	VIYSDGRRTFYGISVK	GRAAGTFDS	ND / 4.31 / ND	4.31	0 of 9
GFTLNSYGIS	VDYRDGRRTFYGDSVK	GRVAGTFDS	ND / ND / ND	ND	0 of 9
GFTLNSYGIS	VIYSDTRPTFYGDSVK	GRAAGTFDS	ND / ND / ND	ND	0 of 9
GFTLNSYGIS	VIYSDIRRPFYGWSVK	GRAAGTFDS	ND / ND / ND	ND	1 of 9 (3.81)
GFTLNSYGLS	VIYSDGRRDPYGDSVK	GRAAGTFDS	ND / ND / ND	ND	1 of 9 (4.30)
GFTLNSYGIW	VIYSDGRRTFYTDSVK	GEAAGTFDS	ND / ND / ND	ND	0 of 9
GFTLNSFGIS	VIYSDGRRTFYIDGVK	GRAAGTFDS	1.56 / 1.78 / 1.94	1.76	1 of 9 (4.28)
NFTLNSYGIS	VIYSDGRRTFYGDSVK	EWAAGTFDS	1.20 / 1.13 / 1.04	1.12	2 of 9 (3.98)

Extract of 3 entries:

| CDR-H1 | CDR-H2 | CDR-H3 | replicates, log10 nM | mean log10 Kd (nM) | empty controls |
|---|---|---|---|---|---|
| GFTLWSSGIS | VIYSDGRRIFYGDSVK | GRAAGTFDS | 3.09 / 2.68 / 2.99 | 2.92 | 2 of 9 (3.85) |
| GFTLNSYGIS | QIYSDGRRTFYGDSVK | ERAAGTFDH | ND / ND / ND | ND | 0 of 9 |
| GFTLNSYGIS | VMYSDGRRTFYGISVK | IRAAGTFDS | ND / ND / ND | ND | 1 of 9 (3.07) |

Background: pairings of library AAYL49 with three empty control strains gave a value in 15% of cases (median 4.06, 5th percentile 2.83). Values in that range, when seen in few replicates, are hard to tell from nonspecific mating. Also given: how often the same scFv was detected with the empty control strains, with their mean in brackets. For reference, the parent read 0.65 as the reference entry and 4.11 (one replicate of three) as a member of this library.